This note sets out measurements from patent US11492325B2 (dated 2022).

Structures are written as SMILES.

The nature of data set [1]: Metabolism in mouse hepatic S9. The following applies: 0.4 mg protein/incubation; 30 mins, 37° C.
A short description of data set [2]: Metabolism in human hepatic S9. As to conditions: 0.4 mg protein/incubation; 30 mins, 37° C.
Data set [3] addresses T1, Human FMO1 (Homo sapiens, UniProt Q01740).
T1 sequence (Q01740 1-532): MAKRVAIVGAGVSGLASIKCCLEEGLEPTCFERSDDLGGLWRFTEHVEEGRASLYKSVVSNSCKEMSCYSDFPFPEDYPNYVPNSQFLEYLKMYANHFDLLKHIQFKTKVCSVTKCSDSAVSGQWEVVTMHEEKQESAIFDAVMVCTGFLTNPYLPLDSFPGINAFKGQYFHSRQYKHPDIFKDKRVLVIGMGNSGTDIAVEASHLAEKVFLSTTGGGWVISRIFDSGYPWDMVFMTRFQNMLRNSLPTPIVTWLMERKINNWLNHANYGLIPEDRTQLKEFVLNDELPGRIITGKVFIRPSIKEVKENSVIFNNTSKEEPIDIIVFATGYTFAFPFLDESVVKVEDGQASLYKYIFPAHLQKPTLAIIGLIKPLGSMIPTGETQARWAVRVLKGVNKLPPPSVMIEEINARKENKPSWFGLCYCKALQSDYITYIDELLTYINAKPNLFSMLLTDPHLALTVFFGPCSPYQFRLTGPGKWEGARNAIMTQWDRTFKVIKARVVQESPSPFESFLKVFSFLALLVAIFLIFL
As to conditions: 15 μg enzyme/incubation; 30 mins, 37° C.

On to `Cc1cccc(C)c1OCC(C)N` (racemic) [Mexiletine, reference compound], for which the “Mouse S-9, nmol metab./incub.” value in data set [1] is given as 8.0 nmol metab./incub. For the same compound, the “Human S-9, nmol metab./incub.” value in data set [2] amounted to 3.9 nmol metab./incub. In addition, the “Human FMO1, nmol metab./incub.” value in data set [3] was 2.4 nmol metab./incub.

`Cl.[2H]C(C)(N)COc1c(C)cccc1C` [D-Mexiletine]: the “Mouse S-9, nmol metab./incub.” value in data set [1] is on record as 3.9 nmol metab./incub. For the same compound, the “Human FMO1, nmol metab./incub.” value in data set [3] is 1.4 nmol metab./incub.
